Results: US7632506B2, “Identification of new NY-ESO-1 epitopes recognized by CD4+ T-cells” (Ludwig Institute for Cancer Research, priority 2005, dated 2009)

Tested on: CD4+ T cells
Experiment: IFN-γ ELISPOT of CD4+ T cells presensitized with overlapping NY-ESO-1 18 mer peptides
Assay type: cell-based, human
Experimental: Peripheral blood mono-nuclear cells (“PBMCs”) were separated from heparinized blood via Ficoll density gradient separation, using standard, art recognized techniques. Once this was done, the CD4^+ and CD8^+ T cells were separated from each other using magnetic cell sorting techniques which are well known to the art, producing CD4^+, CD8^+, and CD4^−/CD8^− cell populations.
A series of 18 mer peptides were prepared from the amino acid sequence of NY-ESO-1 as set forth in, e.g., U.S. Pat. No. 5,804,381, incorporated by reference. The peptides were designed to cover the entire sequence of NY-ESO-1, and to provide overlap.
The peptides were then individually pulsed to antigen presenting cells (“APCs”). These were CD4^−/CD8^− PBMCs taken from the same subjects who had provided the CD4^+ and CD8^+ cells. These APCs were irradiated with 3000 rads, and then pulsed with one of the peptides, at a concentration of 10 μg/ml, for 1 hour, in serum free medium. These APCs were then washed, and added to the CD4^+ cells. In the pulsing experiments, the peptides were solubilized in DMSO (100%) and then diluted with PBS to a final concentration of 10% DMSO. The CD4^+ cells had been cultured in a medium of L-arginine (242 mg/l), L-asparagene (50 mg/l), L-glutamine (300 mg/l), penicillin (10 IU/ml), streptomycin (100 μg/ml), 1% non-essential amino acids, 10% HS, and 10 ng/ml of recombinant human IL-2.
The CD4^+ T cells were restimulated weekly with 1 μg/ml of the peptide being used. […] The number of blue spots/well represented the proportion of NY-ESO-1 specific CD4^+ T-cells/well was finally counted under the microscope.
The EBV-B-cells were generated from each patients' PBMC following standard methods and maintained in RPMI 1640 medium supplemented with 10 mM Hepes buffer, L-arginine (242 mg/l), L-asparagine (50mg/l), L-glutamine (300 mg/l), penicillin (10 IU/ml), streptomycin (100 μg/ml), 1% non-essential amino acids, and 10% FCS. All EBV-B-cells had been analyzed in RT-PCR for NY-ESO-1 mRNA expression and were negative except for the MZ-1257 EBV-B-cell line. […]

p121-138: synthetic 18 mer peptide, amino acids 121-138 of NY-ESO-1
− (− indicates <50 spots): Patient T cells 1 (day 12, CD4+ T cells of patient 1, autologous peptide pulsed EBV-B cells as targets) | Patient T cells 2 (day 12, CD4+ T cells of patient 2, autologous peptide pulsed EBV-B cells as targets) | Patient T cells 3 (day 12, CD4+ T cells of patient 3, autologous peptide pulsed EBV-B cells as targets)
